# According to PubChem BioAssay AID1259400 (National Center for Advancing Translational Sciences (NCATS), 2018):
# Sequences of proteins named here, by UniProt entry; tags and fusion partners are left off.
# UniProt Q9HBX9, whole entry: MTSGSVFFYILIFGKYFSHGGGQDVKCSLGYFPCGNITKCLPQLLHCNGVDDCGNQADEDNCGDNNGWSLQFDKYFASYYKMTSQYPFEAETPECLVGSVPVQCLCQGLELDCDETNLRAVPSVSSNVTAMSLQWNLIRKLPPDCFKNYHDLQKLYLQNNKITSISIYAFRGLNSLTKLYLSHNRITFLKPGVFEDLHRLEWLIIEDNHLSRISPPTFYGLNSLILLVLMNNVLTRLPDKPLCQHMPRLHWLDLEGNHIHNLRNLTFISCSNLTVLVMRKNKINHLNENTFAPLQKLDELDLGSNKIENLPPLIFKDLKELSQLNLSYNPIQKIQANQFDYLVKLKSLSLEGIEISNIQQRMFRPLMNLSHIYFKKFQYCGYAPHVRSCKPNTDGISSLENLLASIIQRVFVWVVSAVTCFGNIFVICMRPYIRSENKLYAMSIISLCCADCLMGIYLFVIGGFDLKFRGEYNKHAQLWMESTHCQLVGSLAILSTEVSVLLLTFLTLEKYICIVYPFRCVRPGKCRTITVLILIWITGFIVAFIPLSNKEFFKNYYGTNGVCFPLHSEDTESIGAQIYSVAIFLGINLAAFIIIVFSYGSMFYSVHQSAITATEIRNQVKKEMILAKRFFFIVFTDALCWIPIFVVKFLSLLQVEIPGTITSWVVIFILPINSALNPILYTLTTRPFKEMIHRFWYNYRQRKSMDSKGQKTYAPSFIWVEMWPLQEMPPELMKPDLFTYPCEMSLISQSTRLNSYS
# This is a selection; strong and weak results do not stand in their true shares. The source made the active and inactive calls.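 The calls were made as follows: active = activity change of -60% or lower, but not beyond a set lower limit; inconclusive = change between -60% and -40%, or beyond the set limit; inactive = change above -40%.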
# Target: Relaxin receptor 1 (Homo sapiens) (UniProt Q9HBX9)
# Assay: qHTS Assay for Antagonists of the Relaxin Receptor RXFP1
# Details: HEK293-RXFP1, relaxin-stimulated cAMP HTRF, 30 min; at 57.5 µM; hits give low values
# Source text: The relaxin hormone is involved in the variety of biological functions in normal tissues and diseases. The role of relaxin is well-established in female reproduction and parturition, mammary gland and endometrial development, maintenance of myometrial quiescence during pregnancy. Relaxin signaling through its G protein-coupled receptor (GPCR) RXFP1 results in ECM remodeling through regulation of collagen deposition, cell invasiveness, proliferation and overall tissue homeostasis. […] Recombinant human relaxin (rhRlx) is currently being tested in clinical trials as a protective agent in congestive heart failure, in treating severe preeclampsia, and as an anti-fibrotic agent in various organs. […] Upon relaxin binding RXFP1 activation leads to the activation of adenylate cyclase (AC) via G?s. cAMP will activate PKA, which phosphorylates many signaling proteins. Thus, detection of cAMP increase is an easy and reliable indication of relaxin receptor activation. To screen for antagonists of the relaxin receptor, a HEK293T cell line stably transfected with RXFP1 was used. RXFP1 activation by relaxin in presence of various concentrations of tested compounds was assayed by changes in cAMP levels as detected with a time-resolved fluorescence energy transfer (TR-FRET) cAMP detection kit.
# For the primary screening, we used HTRF(R) (Homogenous Time-Resolved Fluorescence) cAMP HiRange assay (Cisbio Bioassays, 62AM6PEJ). Presence of cAMP in the cell lysate disrupts binding between the Cryptate-labeled anti-cAMP and d2-labeled cAMP pair, leading to a decrease in TR-FRET signal. The libraries were screened at two doses (57microM and 11microM), followed by a confirmation of the hits at 7-point serial dilution in the range of final concentrations [57microM - 78nM]. Data were normalized to the controls for basal activity (buffer only) and 100% activity (5 nM porcine relaxin). The EC50 values were determined from concentration-response data modeled with the standard Hill equation. NCGC Assay Protocol Summary: HiHEK (Hawaiian HEK293 LGR7 stably transfected with human RXFP1) were grown in the following media: DMEM+10%FBS+Pen/Strep + Geneticin (1mg/ml). For the assay, the cells were seeded in DMEM+Pen/Strep (with no serum & selective antibiotics) at 2,100 cells/ 3microl/well with MultiDrop Combi dispenser (Thermo Scientific, Logan, UT) onto white tissue culture treated solid bottom1536-well plates (Greiner #789173-F) and allowed to attach/recover overnight at 37 degrees C, 5% CO2. Next, 23nl/well of compound solutions in DMSO were transferred into wells with a pintool (Kalypsis, San Diego, CA). […] EC80 (relaxin at 50pM final concentration) was dispensed to the rest of the plate except columns 1&2 which were used as a negative control (EC0, buffer only), 1microl/well also. The cells were stimulated by relaxin in the presence of compounds for 30 minutes at 37 degrees C, 5% CO2. The detection reagents were prepared individually by dilution in Lysis buffer (supplied with the assay kit) just prior to dispensing. 1microl/well of cAMP-d2 and 1microl/well anti-cAMP-Eu3+-Cryptate antibodies were added simultaneously with BioRAPTR FRDtrade mark Workstation (Beckman Coulter). The plates were incubated at ambient temperature for 30 minutes and, then, FRET signal was read on Envision plate reader (PerkinElmer, Waltham, MA), at wavelengths 340nm (excitation), 615nm & 665nm (emission of donor and acceptor channels respectively).
# % is scaled to controls: 0 for no effect and ±100 for the full control effect.
row,SMILES,"activity change, negative = inhibition"
1,COc1cc(C(=O)NCC2(N(C)C)CCCCC2)ccc1OC(F)F,inactive: 17%
2,CCOC(=O)N1CCC(Nc2cccc(C)c2)CC1,inactive: -5.8%
3,CCOC(=O)N1CCC(Nc2ccc(F)cc2)CC1,inactive: 10.2%
4,COc1ccc(NC2CCN(CCc3ccccc3)CC2)c(OC)c1,inactive: 0.893%
5,O=C(NCC1(N2CCCCC2)CCCCC1)c1ccc(F)cc1,inactive: -14.4%
6,CCCCOc1ccc(C(=O)NCC2(N3CCOCC3)CCCCC2)cc1,inactive: -4.37%
7,O=P1(N(CCCl)CCCl)SCCCS1,inactive: 2.15%
8,CCOc1ccc(C)cc1CN(CCCl)CCCl,inactive: 1.74%
9,CCOC(=O)N1CCC(Nc2ccc(OC)cc2)CC1,inactive: 4.86%
10,O=C1C(O)=C([N+](=O)[O-])C(=O)C(O)=C1[N+](=O)[O-],inactive: -1.93%
11,COc1ccc(Cl)cc1C(=O)NCC1(N2CCOCC2)CCCCC1,inactive: -6.33%
12,O=C(OC1CN2CCC1CC2)C1c2ccccc2Oc2ccccc21 (centres undefined),inactive: -10.5%
13,N#CC1(Nc2ccccc2)CCN(Cc2ccccc2)CC1,inactive: 3.06%
14,O=C(NCC1(N2CCCCC2)CCCCC1)c1ccc(Cl)s1,inactive: -13.6%
15,O=C(NCC1(N2CCOCC2)CCCCC1)c1cc2ccccc2o1,inactive: -16.5%
16,Cc1cc(C)cc(N(C(=O)c2ccccc2)C2CCN(C(=O)OC(C)(C)C)CC2)c1,inactive: -33.3%
17,O=C(NCC1(N2CCCCC2)CCCCC1)c1ccc(Cl)nc1,inactive: 11.7%
18,CCOC(=O)N1CCC(=O)CC1,inactive: 3.82%
19,Cc1cccc(NC2(C#N)CCN(Cc3ccccc3)CC2)c1,inactive: -11.7%
20,O=C(NCC1(N2CCCCC2)CCCCC1)c1cccs1,inactive: 4.44%
21,O=C(NCC1(N2CCCCC2)CCCCC1)c1ccc(=O)[nH]c1,inactive: -5.89%
22,CC(C)(C)OC(=O)N1CCC(N(C(=O)c2ccccc2)c2ccc(F)cc2)CC1,inactive: 2.87%

row,SMILES,"activity change, negative = inhibition"
1,COc1ccc(C(=O)NCC2(N3CCCCC3)CCCCC2)c(OC)c1OC,inactive: 11.8%
2,COc1ccc(C(=O)NCC2(N3CCCCC3)CCCCC2)cc1,inactive: -5.79%
3,CCCOc1ccc(C(=O)NCC2(N(C)C)CCCCC2)cc1OC,inactive: 13.6%
4,Cc1ccc(C(=O)NCC2(N(C)C)CCCCC2)o1,inactive: 0.959%
5,CCCCOc1ccccc1C(=O)NCC1(N2CCOCC2)CCCCC1,inactive: -29.5%
6,O=[N+]([O-])c1cc([N+](=O)[O-])c(Nc2ccc(Cl)cc2)c([N+](=O)[O-])c1,inactive: -5.03%
7,O=C(NCC1(N2CCCCC2)CCCCC1)c1cncc(Br)c1,inactive: -5.74%
8,CN1CCC(Nc2cccc(F)c2)CC1,inactive: -1.62%
9,O=C(OC1CN2CCC1CC2)c1ccc([N+](=O)[O-])cc1 (centres undefined),inactive: -18.9%
10,O=C(NCC1(N2CCOCC2)CCCCC1)c1cc(F)c(F)cc1Cl,inactive: -4.36%
11,COc1cc(OC)c(C(=O)NCC2(N(C)C)CCCCC2)cc1OC,inactive: 0.415%
12,CN(C)c1cccc(C(=O)NCC2(N3CCCCC3)CCCCC2)c1,inactive: 6.77%
13,O=[N+]([O-])c1cc([N+](=O)[O-])c(OC2CCCCC2O)c([N+](=O)[O-])c1 (centres undefined),inactive: -8.07%
14,COc1ccc(CN(CCCl)CCCl)cc1Cl,inactive: -10.9%
15,CC(C)c1ccc(C(=O)NCC2(N3CCOCC3)CCCCC2)cc1,inactive: -22.8%
16,COc1ccc(NC2CCN(C(=O)OC(C)(C)C)CC2)cc1,inactive: 1.69%
17,O=C(NCC1(N2CCOCC2)CCCCC1)c1cc(=O)[nH]c2ccccc12,inactive: 3.49%
18,COc1cc(C(=O)NCC2(N3CCCCC3)CCCCC2)ccc1OC(F)F,inactive: -12.3%
19,O=C(NCC1(N2CCCCC2)CCCCC1)c1cccc(C(F)(F)F)c1,inactive: -10.6%
20,CCCOc1cccc(C(=O)NCC2(N3CCOCC3)CCCCC2)c1,inactive: -16.4%
21,O=[N+]([O-])c1cc([N+](=O)[O-])c(NCC2CCS(=O)(=O)C2)c([N+](=O)[O-])c1 (centres undefined),inactive: -20%
22,CSc1ccc(C(=O)NCC2(N3CCOCC3)CCCCC2)cc1,inactive: -7.12%

row,SMILES,"activity change, negative = inhibition"
1,O=C(NCC1(N2CCCCC2)CCCCC1)c1cccc([N+](=O)[O-])c1,inactive: 3.09%
2,N#CC1(Nc2ccccc2)CCN(CCc2ccccc2)CC1,inactive: -6.74%
3,CCN1CCC(Nc2ccc(Cl)cc2)CC1,inactive: 1.5%
4,O=C(NCC1(N2CCCCC2)CCCCC1)c1ccc(OC(F)F)cc1,inactive: 2.96%
5,Cc1cc(N(CCCl)CCCl)ccc1C=O,inactive: -5.84%
6,CCCN1CCC(Nc2cc(OC)cc(OC)c2)CC1,inactive: -11.5%
7,c1ccc(CN2CCC(Nc3ccccc3)CC2)cc1,inactive: -0.615%
8,CN(C)C1(CNC(=O)c2cccc(C#N)c2)CCCCC1,inactive: -0.849%
9,CCOC(=O)C(CC)C1=NC(C)(C)Cc2ccccc21.O=[N+]([O-])c1cc([N+](=O)[O-])c(O)c([N+](=O)[O-])c1 (centres undefined),inactive: -0.518%
10,N#Cc1ccc(C(=O)NCC2(N3CCCCC3)CCCCC2)cc1,inactive: -30.4%
11,O=C(O)c1cccc(Nc2c([N+](=O)[O-])cc([N+](=O)[O-])cc2[N+](=O)[O-])c1,inactive: -5.45%
12,O=C(OC1CN2CCC1CC2)C1c2ccccc2C=Cc2ccccc21 (centres undefined),inactive: -6.91%
13,CCc1cc(C(=O)NCC2(N3CCCCC3)CCCCC2)sc1C,inactive: 1.27%
14,N/C(=N\O)c1c(N)no[n+]1[O-],inactive: -18.2%
15,CCOC(=O)N1CCC(Nc2ccc(C)cc2)CC1,inactive: 14%
16,COc1ccc(C(=O)NCC2(N3CCOCC3)CCCCC2)cc1OC,inactive: -8.26%
17,CCC(=O)N(c1ccccc1)C1CCNCC1,inactive: 27.1%
18,O=C(NCC1(N2CCOCC2)CCCCC1)c1cc(Br)ccc1Cl,inactive: 3.79%
19,COc1cc(C(=O)NCC2(N3CCOCC3)CCCCC2)cc(OC)c1C,inactive: 1.28%
20,CN1CCC(Nc2ccc(Cl)cc2)CC1,inactive: 0.175%
